# ChEMBL document CHEMBL4680247, “Design, synthesis, and biological evaluation of 3-amino-2-oxazolidinone derivatives as potent quorum-sensing inhibitors of Pseudomonas aeruginosa PAO1” (Eur J Med Chem, 2020)
# Columns and labels:
# Pseudomonas aeruginosa [1] = details: PAO1, time 18.0 hrs
# Pseudomonas aeruginosa [2] = details: PAO1, time 2.0 day
sequence,measurement,setting,value
COLISTIN SULFATE,MIC,Pseudomonas aeruginosa [1],4 µg/mL
same,MIC,Pseudomonas aeruginosa [2],64 µg/mL
